Earlier results as cited in patent publication US20210009613A1, “ARYLPHOSPHINE OXIDES FOR INHIBITING KINASE ACTIVITY” (Shenzhen TargetRx, Inc., priority 2017, published 2021).

Tested on: ALK+NSCLC
Conditions: cited from earlier work

## C[C@@H](Oc1cc(-c2cnn(C3CCNCC3)c2)cnc1N)c1c(Cl)ccc(F)c1Cl [Crizotinib]
ALK-positive patients
  ALK-positive patients with no objective response at the beginning of therapy: About 40%
Patients with ALK+NSCLC
  median progression-free survival: 8-11 months
  objective response rate: 60-74%
